Assay results published in paper PMC4917012.

System: NCCc1c[nH]c2ccccc12
Experiment: purified protein
Settings: 100 mM NaCl, 100 μM NAD and FAD, 2.5 μM MBP-RebF, 2.5% DMSO, 25 mM HEPES pH 7.4, 25 °C
[1] = variant 8F (changes summed along the printed lineage, b15-b20), 25 μM enzyme

Substance | Km [1] | kcat [1] | kcat/Km [1] | Km (variant 0S, 0.1 μM) | kcat (variant 0S, 0.1 μM) | kcat/Km (variant 0S, 0.1 μM)
RebH (rebeccamycin halogenase) (Lentzea aerocolonigenes; F465L/I52M/L380F/N166S/N470S/Q494R/R509Q/S110P/S130L/S448P/Y455W) | 1747 µM | 0.000617 s⁻¹ | 0.35 M⁻¹ s⁻¹ |  |  | 
RebH (rebeccamycin halogenase) (Lentzea aerocolonigenes; N470S) |  |  |  | 10.6 µM | 0.00225 s⁻¹ | 433 M⁻¹ s⁻¹
